The source of these data is US8298782B2, “Reversible MHC multimer staining for functional purification of antigen-specific T cells” (priority 2000, dated 2012).

In the data set the test system is T cells. The data set can be described thus: d-biotin toxicity / T cell function. The format is cell-based. The conditions noted are these: tested up to a concentration of 50 mM; listed as d-biotin.

Entries after “also recorded” stand apart in the source; their conditions may differ.

In the case of `O=C(O)CCCC[C@@H]1SC[C@@H]2NC(=O)N[C@@H]21` [biotin], the “toxicity or changes of T cell function” value is “no evidence for toxicity or changes of T cell function; also recorded: could not find evidence for toxicity or changes of T cell function”.
